This is an account of results in PubChem BioAssay AID2462 (Broad Institute, 2010).

The entries are a selection whose mix differs from that of the whole data set. Active and inactive are the calls of the source.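 The calls were made as follows: active = over half of replicate activation scores above 10%, or exactly half above 10 with the replicate mean above 10; inconclusive = replicate mean below 10 yet half the replicates above 10; inactive = over half of replicates below 10.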

A short description of this experiment: caspase 3/7 activation in MEF A1-2A-BIM cells, primary screen, A1 inhibitor project, cell-based, luminescence, HTS (AID 2462). Conditions: Caspase-Glo 3/7 luminescence, 3 h, hits give high values, percent of clofoctol response, vehicle zero, concentration not given here.
Consider `CN1CCC(Nc2ccc(Cl)cc2)CC1`, for which the caspase activation is inactive: 1.14%.

As to `CCCOc1ccc(C)cc1CN(CCCl)CCCl`, the caspase activation is inactive: 1.48%.

Regarding `COc1cccc(C(=O)N(c2cc(C)cc(C)c2)C2CCN(C(=O)OC(C)(C)C)CC2)c1`, the caspase activation is inactive: 0.356%.

On to `COc1cc(OC)cc(C(=O)NCC2(N3CCOCC3)CCCCC2)c1`, for which the caspase activation is inactive: -0.949%.

Turning to `CCC(CO)(C(=O)OC1CN2CCC1CC2)c1ccccc1` (stereo not given), the caspase activation was inactive: 1.03%.

On to `CC(C)(C)OC(=O)N1CCC(Nc2ccccc2)CC1`, for which the caspase activation was inactive: 1.21%.

On to `O=C(O)C1(Nc2ccccc2)CCN(Cc2ccccc2)CC1`, for which the caspase activation was inactive: 0.182%.

As to `CCCOc1ccc(C(=O)NCC2(N(C)C)CCCCC2)cc1`, the caspase activation is inactive: 0.368%.

Consider `CCOc1ncccc1C(=O)NCC1(N2CCOCC2)CCCCC1`, for which the caspase activation is inactive: 0.175%.

For `CN1CCC(Nc2ccc(F)c(Cl)c2)CC1`, the caspase activation was inactive: -0.862%.

Turning to `O=C(NCC1(N2CCCCC2)CCCCC1)c1ccco1`, the caspase activation is inactive: 0.441%.

Consider `CN(C)c1ccc(C(=O)NCC2(N3CCCCC3)CCCCC2)cc1`, for which the caspase activation was inactive: 0.695%.

Turning to `CCN1CCC(Nc2cccc(F)c2)CC1`, the caspase activation was inactive: -0.525%.

`Cc1ccc(C(=O)NCC2(N3CCCCC3)CCCCC2)o1`: the caspase activation was inactive: -0.123%.

Consider `Fc1ccccc1NC1CCN(Cc2ccccc2)CC1`, for which the caspase activation is inactive: -0.365%.

Take `COc1cc(OC)cc(C(=O)NCC2(N3CCCCC3)CCCCC2)c1`: the caspase activation is inactive: 1.29%.

Consider `CN(C)C1(CNC(=O)c2cccc(C#N)c2)CCCCC1`, for which the caspase activation was inactive: 0.284%.

Turning to `c1ccc(CN2CCC(Nc3ccccc3)CC2)cc1`, the caspase activation is inactive: 0.473%.

Turning to `CCCN1CCC(Nc2cc(OC)cc(OC)c2)CC1`, the caspase activation was inactive: -1.13%.

With `N#Cc1ccc(C(=O)NCC2(N3CCCCC3)CCCCC2)cc1`, the caspase activation was inactive: -0.374%.

Take `CC(C)(C)OC(=O)N1CCC(N(C(=O)c2ccccc2)c2ccc(Cl)cc2)CC1`: the caspase activation is inactive: 0.0771%.

With `CCc1cc(C(=O)NCC2(N3CCCCC3)CCCCC2)sc1C`, the caspase activation was inactive: -0.212%.

In the case of `O=C(OC1CN2CCC1CC2)C1c2ccccc2C=Cc2ccccc21` (stereo not given), the caspase activation is inactive: -0.74%.

For the molecule `CCOC(=O)N1CCC(Nc2ccc(C)cc2)CC1`, the caspase activation was inactive: -0.186%.

For `N/C(=N\O)c1c(N)no[n+]1[O-]`, the caspase activation was inactive: -1.22%.

On to `COc1ccc(C(=O)NCC2(N3CCOCC3)CCCCC2)cc1OC`, for which the caspase activation was inactive: -0.108%.

Consider `COc1cc(C(=O)NCC2(N3CCOCC3)CCCCC2)cc(OC)c1C`, for which the caspase activation was inactive: -0.409%.

In the case of `O=C(NCC1(N2CCOCC2)CCCCC1)c1cc(Br)ccc1Cl`, the caspase activation is inactive: -1.42%.

Regarding `CCCOc1ccc(C(=O)NCC2(N(C)C)CCCCC2)cc1OC`, the caspase activation was inactive: 1.09%.

Consider `CN1CCC(Nc2cccc(F)c2)CC1`, for which the caspase activation is inactive: 0.266%.

Turning to `O=C(NCC1(N2CCCCC2)CCCCC1)c1cncc(Br)c1`, the caspase activation is inactive: -0.165%.

For `COc1cc(OC)c(C(=O)NCC2(N(C)C)CCCCC2)cc1OC`, the caspase activation was inactive: 0.446%.

`O=C(NCC1(N2CCOCC2)CCCCC1)c1cc(F)c(F)cc1Cl`: the caspase activation was inactive: -1.56%.

For the molecule `CC(C)c1ccc(NC2CCN(C(=O)OC(C)(C)C)CC2)cc1`, the caspase activation is inactive: -0.419%.

In the case of `COc1ccc(CN(CCCl)CCCl)cc1Cl`, the caspase activation was inactive: -0.592%.

As for `CN(C)c1cccc(C(=O)NCC2(N3CCCCC3)CCCCC2)c1`, the caspase activation was inactive: 1.22%.

Turning to `O=C(NCC1(N2CCOCC2)CCCCC1)c1cc(=O)[nH]c2ccccc12`, the caspase activation was inactive: -0.264%.

Turning to `COc1cc(C(=O)NCC2(N3CCCCC3)CCCCC2)ccc1OC(F)F`, the caspase activation is inactive: 0.233%.

`COc1ccc(NC2CCN(C(=O)OC(C)(C)C)CC2)cc1`: the caspase activation was inactive: -0.49%.

For `CN1CCN(CCOC(=O)C(O)(c2ccccc2)c2ccccc2)CC1`, the caspase activation is inactive: 0.942%.

In the case of `O=C(NCC1(N2CCCCC2)CCCCC1)c1cccc(C(F)(F)F)c1`, the caspase activation is inactive: -0.192%.

For the molecule `CCN1CCC(Nc2ccc(Cl)cc2)CC1`, the caspase activation is inactive: -7.63%.

As to `N#CC1(Nc2ccccc2)CCN(CCc2ccccc2)CC1`, the caspase activation was inactive: 0.452%.

With `O=C(NCC1(N2CCCCC2)CCCCC1)c1cccc([N+](=O)[O-])c1`, the caspase activation was inactive: 0.37%.

`O=C(NCC1(N2CCCCC2)CCCCC1)c1ccc(OC(F)F)cc1`: the caspase activation is inactive: 0.143%.

Turning to `COc1cc(C(=O)NCC2(N(C)C)CCCCC2)ccc1OC(F)F`, the caspase activation was inactive: 0.992%.

With `Cc1ccc(OCC(C)C)c(CN(CCCl)CCCl)c1`, the caspase activation was inactive: 1.55%.

As to `O=C(NCC1(N2CCCCC2)CCCCC1)c1ccc(F)cc1`, the caspase activation was inactive: 0.182%.

Consider `CCOC(=O)N1CCC(Nc2ccc(F)cc2)CC1`, for which the caspase activation is inactive: 0.614%.

`COc1ccc(NC2CCN(CCc3ccccc3)CC2)c(OC)c1`: the caspase activation is inactive: 0.349%.

`CCOc1ccc(C)cc1CN(CCCl)CCCl`: the caspase activation was inactive: 1.83%.

Regarding `N#CC1(Nc2ccccc2)CCN(Cc2ccccc2)CC1`, the caspase activation was inactive: 0.117%.

With `O=C(NCC1(N2CCCCC2)CCCCC1)c1ccc(Cl)s1`, the caspase activation is inactive: 0.383%.

For `O=C(OC1CN2CCC1CC2)C1c2ccccc2Oc2ccccc21` (stereo not given), the caspase activation was inactive: 0.701%.

In the case of `COc1ccc(Cl)cc1C(=O)NCC1(N2CCOCC2)CCCCC1`, the caspase activation is inactive: -0.112%.

Regarding `CCOC(=O)N1CCC(Nc2ccc(OC)cc2)CC1`, the caspase activation is inactive: 0.111%.

`O=C(NCC1(N2CCCCC2)CCCCC1)c1ccc(Cl)nc1`: the caspase activation was inactive: -0.65%.

In the case of `Cc1cc(C)cc(N(C(=O)c2ccccc2)C2CCN(C(=O)OC(C)(C)C)CC2)c1`, the caspase activation was inactive: 1.23%.

As for `O=C(NCC1(N2CCOCC2)CCCCC1)c1cc2ccccc2o1`, the caspase activation is inactive: -0.557%.

Turning to `CSc1ccccc1C(=O)NCC1(N2CCCCC2)CCCCC1`, the caspase activation was inactive: 0.35%.

For `COc1ccc(C(=O)NCC2(N3CCCCC3)CCCCC2)cc1`, the caspase activation was inactive: -0.379%.

For `CC(C)(C)OC(=O)N1CCC(N(C(=O)c2ccccc2)c2ccc(F)cc2)CC1`, the caspase activation was inactive: 0.716%.

As to `COc1ccc(C(=O)NCC2(N3CCCCC3)CCCCC2)c(OC)c1OC`, the caspase activation is inactive: 1.22%.

With `O=C(NCC1(N2CCCCC2)CCCCC1)c1ccc(=O)[nH]c1`, the caspase activation is inactive: 0.473%.

`O=C(NCC1(N2CCCCC2)CCCCC1)c1cccs1`: the caspase activation was inactive: 1.09%.
